Measured values as given in patent US10766893B2 (priority 2017, dated 2020).

Amino acid sequences for entries named in this document (tags omitted). A change or cut given only in a name is not applied to a line headed by its entry.
UniProt Q14123, whole entry: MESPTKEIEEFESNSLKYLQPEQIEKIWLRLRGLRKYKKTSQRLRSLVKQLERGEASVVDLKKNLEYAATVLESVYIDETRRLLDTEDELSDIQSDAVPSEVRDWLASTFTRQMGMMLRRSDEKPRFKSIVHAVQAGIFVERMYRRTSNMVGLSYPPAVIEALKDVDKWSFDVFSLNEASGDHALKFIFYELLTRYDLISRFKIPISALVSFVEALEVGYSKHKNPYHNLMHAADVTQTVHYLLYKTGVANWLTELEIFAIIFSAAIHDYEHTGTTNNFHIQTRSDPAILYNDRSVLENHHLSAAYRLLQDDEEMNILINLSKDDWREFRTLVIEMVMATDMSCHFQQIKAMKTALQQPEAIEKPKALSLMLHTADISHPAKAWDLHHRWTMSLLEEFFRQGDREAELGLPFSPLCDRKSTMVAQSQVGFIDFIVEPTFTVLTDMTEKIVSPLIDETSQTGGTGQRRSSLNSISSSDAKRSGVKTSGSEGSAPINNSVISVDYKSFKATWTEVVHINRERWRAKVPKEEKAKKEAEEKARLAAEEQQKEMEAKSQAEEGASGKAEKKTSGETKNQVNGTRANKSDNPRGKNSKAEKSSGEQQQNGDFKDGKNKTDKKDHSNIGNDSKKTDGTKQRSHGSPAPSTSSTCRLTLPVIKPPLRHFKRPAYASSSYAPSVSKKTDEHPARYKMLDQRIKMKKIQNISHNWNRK
UniProt Q01064: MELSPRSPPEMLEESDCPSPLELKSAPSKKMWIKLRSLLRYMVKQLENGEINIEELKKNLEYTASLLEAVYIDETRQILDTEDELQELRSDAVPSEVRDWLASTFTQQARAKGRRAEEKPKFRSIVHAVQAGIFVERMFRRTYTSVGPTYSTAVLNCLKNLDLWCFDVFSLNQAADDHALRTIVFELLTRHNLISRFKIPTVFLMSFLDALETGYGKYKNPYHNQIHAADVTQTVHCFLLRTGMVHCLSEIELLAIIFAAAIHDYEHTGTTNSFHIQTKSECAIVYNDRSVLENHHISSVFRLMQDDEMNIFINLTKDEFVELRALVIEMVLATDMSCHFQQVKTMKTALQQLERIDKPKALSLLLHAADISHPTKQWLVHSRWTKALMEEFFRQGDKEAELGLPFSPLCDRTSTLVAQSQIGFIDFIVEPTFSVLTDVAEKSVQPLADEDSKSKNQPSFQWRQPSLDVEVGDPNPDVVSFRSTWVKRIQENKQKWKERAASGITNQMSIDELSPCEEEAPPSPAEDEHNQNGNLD

Tests used:
PDE1C = PDE1C (Homo sapiens (Human), UniProt Q14123); assay type: biochemical; conditions: 15 nM tritium labelled cAMP, 1 hr at room temperature
Description: (§1) Table 1 lists the IC50 value for inhibition of PDE1 by the compounds of the invention. […] PDE1 assays are described in the Experimental Section.

PDE1B = PDE1B (Homo sapiens (Human), UniProt Q01064); assay: biochemical; conditions: IC50 (nM), 15 nM tritium labelled cAMP, 1 hr at room temperature
Description: as §1

| IC50 (PDE1B) [nM] | SMILES | IC50 (PDE1C) [nM] |
| --- | --- | --- |
|  | CCOc1ncccc1-c1cc(NCc2cccn3cnnc23)c2c(n1)c(C)nn2C(C)C [Example 3a, 5-(2-ethoxy-3-pyridyl)-1-isopropyl-3-methyl-N-([1,2,4]triazolo[4,3-c]pyridin-8-ylmethyl)pyrazolo[4,3-b]pyridin-7-amine] | 16 |
| 7.8 | Cc1nc2c(-c3cc(NCc4cnn(C)c4)c4c(n3)c(C)nn4C(C)C)cccc2o1 [Example 35b, 1-isopropyl-3-methyl-5-(2-methyl-1,3-benzoxazol-4-yl)-N-[(1-methylpyrazol-4-yl)methyl]pyrazolo[4,3-b]pyridin-7-amine] |  |
